This note sets out measurements from paper PMC5681660, “Reduced hepatitis B and D viral entry using clinically applied drugs as novel inhibitors of the bile acid transporter NTCP” (Scientific Reports, 2017).

Where a name gives a salt, the structure may show the parent alone.

The target of one assay is T1, human NTCP (Homo sapiens, UniProt Q14973).
T1 sequence (Q14973 1-349): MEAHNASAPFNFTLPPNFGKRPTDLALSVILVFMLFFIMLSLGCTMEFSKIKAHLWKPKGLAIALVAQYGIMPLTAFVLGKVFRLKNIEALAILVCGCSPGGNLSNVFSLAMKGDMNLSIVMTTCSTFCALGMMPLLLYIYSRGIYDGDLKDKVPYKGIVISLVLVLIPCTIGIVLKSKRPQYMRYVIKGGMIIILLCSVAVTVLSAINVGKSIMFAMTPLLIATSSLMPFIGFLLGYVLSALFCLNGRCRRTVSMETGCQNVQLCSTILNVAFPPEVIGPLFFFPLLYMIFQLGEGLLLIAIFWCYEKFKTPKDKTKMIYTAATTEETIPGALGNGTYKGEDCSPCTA
Kind of assay: Screening fluorescent competitive Myrcludex B-FITC binding assay (96-well, 10 µM drug). To be noted: 0.5 h, read-out: %NTCP binding, screening Myrcludex B-FITC binding, 10 µM drug, Prestwick library.
Turning to `CC(=O)O[C@H]1C[C@H](O[C@H]2[C@@H](O)C[C@H](O[C@H]3[C@@H](O)C[C@H](O[C@H]4CC[C@@]5(C)[C@H](CC[C@@H]6[C@@H]5C[C@@H](O)[C@]5(C)[C@@H](C7=CC(=O)OC7)CC[C@]65O)C4)O[C@@H]3C)O[C@@H]2C)O[C@H](C)[C@H]1O[C@@H]1O[C@H](CO)[C@@H](O)[C@H](O)[C@H]1O` [Lanatoside C], the remaining activity at 10 µM came out at 89.7%.

As for `CCC1(c2cccc(O)c2)CCCCN(C)C1` (stereo not drawn) [Meptazinol hydrochloride], the remaining activity at 10 µM was found to be 106%.

With `COc1ccc(OC)c(C(O)C(C)N)c1` (stereo not drawn) [Methoxamine hydrochloride], the remaining activity at 10 µM came to 87.3%.

Staying with this assay, now noted: screening Myrcludex B-FITC binding, 10 µM drug.
Turning to `CC1Cc2ccccc2N1NC(=O)c1ccc(Cl)c(S(N)(=O)=O)c1` (stereo not drawn) [Indapamide], the B-score binding assay is listed as -0.039.

For `COc1ccc2c(c1)c(CC(=O)O)c(C)n2C(=O)c1ccc(Cl)cc1` [Indomethacin], the B-score binding assay is reported as -0.766.

Consider `CC(=O)N(CC(C)C(=O)O)c1c(I)cc(I)c(N)c1I` (stereo not drawn) [Iocetamic acid], for which the B-score binding assay is recorded as -1.34.

In turn, `CC(=O)N(CC(O)CN(C(C)=O)c1c(I)c(C(=O)NCC(O)CO)c(I)c(C(=O)NCC(O)CO)c1I)c1c(I)c(C(=O)NCC(O)CO)c(I)c(C(=O)NCC(O)CO)c1I` (stereo not drawn) [Iodixanol] registered a B-score binding assay of -2.68.

The compound `C[C@H](O)C(=O)Nc1c(I)c(C(=O)NC(CO)CO)c(I)c(C(=O)NC(CO)CO)c1I` [Iopamidol] came in with a B-score binding assay of -1.757.

Regarding `COCC(=O)Nc1c(I)c(C(=O)NCC(O)CO)c(I)c(C(=O)N(C)CC(O)CO)c1I` (stereo not drawn) [Iopromide], the B-score binding assay was 1.185.

With `CC(C)Oc1ccc2c(=O)c(-c3ccccc3)coc2c1` [Ipriflavone], the B-score binding assay was -1.051.

As for `CC(C)NNC(=O)c1ccncc1.O=P(O)(O)O` [Iproniazide phosphate], the B-score binding assay is -0.749.

`Cc1cc(C(=O)NNCc2ccccc2)no1` [Isocarboxazid] gave a B-score binding assay of -0.695.

In turn, `CCC(NC(C)C)C(O)c1ccc(O)c(O)c1.CS(=O)(=O)O` (stereo not drawn) [Isoetharine mesylate salt] showed a B-score binding assay of 0.701.

As for `CC(=O)OCC(=O)[C@@]1(O)CC[C@H]2[C@@H]3CCC4=CC(=O)C=C[C@]4(C)[C@@]3(F)[C@@H](O)C[C@@]21C` [Isoflupredone acetate], the B-score binding assay is listed as -1.144.

Take `Cc1c(NC(C)C)c(=O)n(-c2ccccc2)n1C.Cl` [Isopyrin hydrochloride]: the B-score binding assay was 0.027.

Take `O=[N+]([O-])O[C@@H]1CO[C@H]2[C@@H]1OC[C@@H]2O` [Isosorbide mononitrate]: the B-score binding assay is on record as -1.68.

In the case of `CC1=C(/C=C/C(C)=C/C=C/C(C)=C\C(=O)O)C(C)(C)CCC1` [Isotretinoin], the B-score binding assay is on record as -1.949.

As for `COC(=O)C1=C(C)NC(C)=C(C(=O)OC(C)C)C1c1cccc2nonc12` (stereo not drawn) [Isradipine], the B-score binding assay is -1.994.

`COc1ccc(C(=O)NCc2ccc(OCCN(C)C)cc2)cc1OC` [Itopride] registered a B-score binding assay of 0.695.

`CC[C@H](C)[C@H]1O[C@]2(CC[C@@H]1C)C[C@@H]1C[C@@H](C/C=C(\C)[C@@H](O[C@H]3C[C@H](OC)[C@@H](O[C@H]4C[C@H](OC)[C@@H](O)[C@H](C)O4)[C@H](C)O3)[C@@H](C)/C=C/C=C3\CO[C@@H]4[C@H](O)C(C)=C[C@@H](C(=O)O1)[C@]34O)O2` [Ivermectin]: the B-score binding assay is -3.124.

Consider `Cl.OC1CCCCC1N1CCC(c2ccccc2)CC1` (stereo not drawn) [L(-)-vesamicol hydrochloride], for which the B-score binding assay is given as -2.139.

The compound `CC(CCc1ccccc1)NCC(O)c1ccc(O)c(C(N)=O)c1` (stereo not drawn) [Labetalol hydrochloride] gave a B-score binding assay of -0.755.

Compound `CC(=O)O[C@H]1C[C@H](O[C@H]2[C@@H](O)C[C@H](O[C@H]3[C@@H](O)C[C@H](O[C@H]4CC[C@@]5(C)[C@H](CC[C@@H]6[C@@H]5C[C@@H](O)[C@]5(C)[C@@H](C7=CC(=O)OC7)CC[C@]65O)C4)O[C@@H]3C)O[C@@H]2C)O[C@H](C)[C@H]1O[C@@H]1O[C@H](CO)[C@@H](O)[C@H](O)[C@H]1O` [Lanatoside C] showed a B-score binding assay of 0.543.

In the case of `N#Cc1ccc(C(c2ccc(C#N)cc2)n2cncn2)cc1` [Letrozole], the B-score binding assay is -0.633.

Regarding `N[C@@H](Cc1ccc(O)c(O)c1)C(=O)O` [Levodopa], the B-score binding assay is -2.107.

Compound `Cc1cccc(C)c1NC(=O)CN1CCN(CCCC(c2ccc(F)cc2)c2ccc(F)cc2)CC1` [Lidoflazine] displayed a B-score binding assay of 0.174.

In the case of `CC(=O)NC[C@H]1CN(c2ccc(N3CCOCC3)c(F)c2)C(=O)O1` [Linezolid], the B-score binding assay is recorded as -1.404.

`C[C@H](CCC(=O)O)[C@H]1CC[C@H]2[C@@H]3CC[C@@H]4C[C@H](O)CC[C@]4(C)[C@H]3CC[C@]12C` [Lithocholic acid] registered a B-score binding assay of -3.25.

For `N#Cc1cc(NC(=O)C(=O)O)c(Cl)c(NC(=O)C(=O)O)c1` [Lodoxamide], the B-score binding assay stood at 0.075.

In turn, `CN(CCCN1c2ccccc2CCc2ccccc21)CC(=O)c1ccc(Cl)cc1` [Lofepramine] came in with a B-score binding assay of -1.093.

As for `CC(Oc1c(Cl)cccc1Cl)C1=NCCN1` (stereo not drawn) [Lofexidine], the B-score binding assay stood at 0.509.

`N[C@@H](C(=O)N[C@@H]1C(=O)N2C(C(=O)O)=C(Cl)CC[C@H]12)c1ccccc1` [Loracarbef] had a B-score binding assay of 1.571.

The compound `CCOC(=O)N1CCC(=C2c3ccc(Cl)cc3CCc3cccnc32)CC1` [Loratadine] returned a B-score binding assay of -2.071.

`CCCCCN(CCCCC)C(=O)C(CCC(=O)[O-])NC(=O)c1ccc(Cl)c(Cl)c1.[Na+]` (stereo not drawn) [Lorglumide sodium salt] had a B-score binding assay of -0.115.

Compound `CCOC(=O)O[C@]1(C(=O)OCCl)CC[C@H]2[C@@H]3CCC4=CC(=O)C=C[C@]4(C)[C@H]3[C@@H](O)C[C@@]21C` [Loteprednol etabonate] had a B-score binding assay of -0.063.

Compound `CC[C@H](C)C(=O)O[C@H]1C[C@@H](C)C=C2C=C[C@H](C)[C@H](CC[C@@H]3C[C@@H](O)CC(=O)O3)[C@H]21` [Lovastatin] yielded a B-score binding assay of -2.793.

On to `O=c1cc(-c2ccc(O)c(O)c2)oc2cc(O)cc(O)c12` [Luteolin], for which the B-score binding assay is on record as -0.068.

Compound `CN(C)[C@@H]1C(O)=C(C(=O)NCNCCCC[C@H](N)C(=O)O)C(=O)[C@@]2(O)C(O)=C3C(=O)c4c(O)cccc4[C@@](C)(O)[C@H]3C[C@@H]12` [Lymecycline] returned a B-score binding assay of -0.586.

Compound `CCN(CCCCOC(=O)c1ccc(OC)c(OC)c1)C(C)Cc1ccc(OC)cc1` (stereo not drawn) [Mebeverine hydrochloride] displayed a B-score binding assay of -0.02.

As for `C=C1c2c(Cl)ccc(O)c2C(=O)C2=C(O)[C@]3(O)C(=O)C(C(N)=O)=C(O)[C@@H](N(C)C)[C@@H]3[C@@H](O)[C@H]12.O=C(O)c1cc(S(=O)(=O)O)ccc1O` [Meclocycline sulfosalicylate], the B-score binding assay was -0.262.

Compound `Cc1cccc(CN2CCN(C(c3ccccc3)c3ccc(Cl)cc3)CC2)c1.Cl.Cl` (stereo not drawn) [Meclozine dihydrochloride] yielded a B-score binding assay of 3.865.

Compound `Cc1cccc(Nc2ccccc2C(=O)O)c1C` [Mefenamic acid] returned a B-score binding assay of -0.995.

`CNC[C@H](O)[C@@H](O)[C@H](O)[C@H](O)CO` [Meglumine]: the B-score binding assay is on record as -2.195.

`C[N+]1(C)CCCC(OC(=O)C(O)(c2ccccc2)c2ccccc2)C1` (stereo not drawn) [Mepenzolate bromide] returned a B-score binding assay of -0.876.

Compound `Cc1cccc(C)c1NC(=O)C1CCCCN1C` (stereo not drawn) [Mepivacaine hydrochloride] registered a B-score binding assay of -1.484.

`CCC1(c2cccc(O)c2)CCCCN(C)C1` (stereo not drawn) [Meptazinol hydrochloride] showed a B-score binding assay of 1.195.

Take `O=C([O-])c1ccccc1-c1c2cc(Br)c(=O)cc-2oc2[c]([Hg+])c([O-])c(Br)cc12.[Na+].[Na+].[OH-]` [Merbromin]: the B-score binding assay was -6.053.

Take `O=S(=O)(O)CCS` [Mesna]: the B-score binding assay is -2.287.

In the case of `C[C@H](N)[C@H](O)c1cccc(O)c1` [Metaraminol bitartrate], the B-score binding assay is given as -4.813.

For the compound `CN1C[C@H](CNC(=O)OCc2ccccc2)C[C@@H]2c3cccc4c3c(cn4C)C[C@H]21` [Metergoline], the B-score binding assay is listed as -1.225.

The compound `CC(=O)OC(C)C[N+](C)(C)C` (stereo not drawn) [Methacholine chloride] came in with a B-score binding assay of -0.327.

The compound `C=C1c2cccc(O)c2C(=O)C2=C(O)[C@]3(O)C(=O)C(C(N)=O)=C(O)[C@@H](N(C)C)[C@@H]3[C@@H](O)[C@H]12` [Methacycline hydrochloride] yielded a B-score binding assay of -2.293.

With `CC[N+](C)(CC)CCOC(=O)C1c2ccccc2Oc2ccccc21` [Methantheline bromide], the B-score binding assay is given as -0.235.

`COC(=O)Nc1nc2ccc(SC(C)C)cc2[nH]1` [Methiazole] registered a B-score binding assay of -0.889.

Compound `COc1ccccc1OCC(O)COC(N)=O` (stereo not drawn) [Methocarbamol] registered a B-score binding assay of 0.028.

Take `COc1ccc(OC)c(C(O)C(C)N)c1` (stereo not drawn) [Methoxamine hydrochloride]: the B-score binding assay stood at 3.085.

In the case of `CN1CCCC(CC2c3ccccc3Sc3ccccc32)C1` (stereo not drawn) [Metixene hydrochloride], the B-score binding assay is recorded as -0.556.

Staying with this assay, now noted: screening Myrcludex B-FITC binding, 10 µM drug, Prestwick library.
With `NC(N)=NCc1cccc(I)c1.NC(N)=NCc1cccc(I)c1.O=S(=O)(O)O` [Iobenguane sulfate], the “%NTCP binding” value worked out at 106.865%.

For the compound `CC(C)NNC(=O)c1ccncc1.O=P(O)(O)O` [Iproniazide phosphate], the “%NTCP binding” value is 47.8775%.

Consider `CCC(NC(C)C)C(O)c1ccc(O)c(O)c1.CS(=O)(=O)O` (stereo not drawn) [Isoetharine mesylate salt], for which the “%NTCP binding” value was determined as 108.688%.

With `N#Cc1cc(NC(=O)C(=O)O)c(Cl)c(NC(=O)C(=O)O)c1` [Lodoxamide], the “%NTCP binding” value was found to be 82.3017%.

With `N[C@@H](C(=O)N[C@@H]1C(=O)N2C(C(=O)O)=C(Cl)CC[C@H]12)c1ccccc1` [Loracarbef], the “%NTCP binding” value is 88.1266%.

Turning to `C=C1c2c(Cl)ccc(O)c2C(=O)C2=C(O)[C@]3(O)C(=O)C(C(N)=O)=C(O)[C@@H](N(C)C)[C@@H]3[C@@H](O)[C@H]12.O=C(O)c1cc(S(=O)(=O)O)ccc1O` [Meclocycline sulfosalicylate], the “%NTCP binding” value was 53.9082%.

`Cc1cccc(CN2CCN(C(c3ccccc3)c3ccc(Cl)cc3)CC2)c1.Cl.Cl` (stereo not drawn) [Meclozine dihydrochloride]: the “%NTCP binding” value amounted to 105.599%.

Still in this assay, the particulars now being: screening Myrcludex B-FITC binding, 10 µM drug; B-score.
For `C[C@@H](O)[C@H]1C(=O)N2C(C(=O)O)=C(SCCN=CN)C[C@H]12` [Imipenem], the B-score binding assay is 1.375.

In turn, `NC(N)=NCc1cccc(I)c1.NC(N)=NCc1cccc(I)c1.O=S(=O)(O)O` [Iobenguane sulfate] had a B-score binding assay of 23.906.
